ChEMBL document CHEMBL4321814, “Design of Gallinamide A Analogs as Potent Inhibitors of the Cysteine Proteases Human Cathepsin L and Trypanosoma cruzi Cruzain” (J Med Chem, 2019)

Chains of the proteins cited; added tags and fusions are not shown. Lines headed by an entry give the natural chain unless they say otherwise; changes in a name come on top.
UniProt P07711: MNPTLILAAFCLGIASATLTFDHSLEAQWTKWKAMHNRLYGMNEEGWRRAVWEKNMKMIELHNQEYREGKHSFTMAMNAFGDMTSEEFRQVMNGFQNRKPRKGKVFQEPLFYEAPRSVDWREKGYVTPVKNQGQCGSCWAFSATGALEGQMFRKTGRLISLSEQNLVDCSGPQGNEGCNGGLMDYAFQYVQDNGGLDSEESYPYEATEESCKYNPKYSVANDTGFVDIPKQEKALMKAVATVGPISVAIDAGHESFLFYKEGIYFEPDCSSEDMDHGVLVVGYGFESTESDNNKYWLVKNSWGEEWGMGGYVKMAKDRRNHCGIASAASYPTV

biological target: Procathepsin L (Homo sapiens) (UniProt P07711); assay: Inhibition of human cathepsin L assessed as Kinact /Ki ratio using fluorogenic substrate cbz-FR-AMC monitored for 90 to 120 mins by spectrophotometry
Summary of the method: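 Continuous kinetic assay with 0.5 ng/mL final cathepsin L and 10 μM Z-FR-AMC, with DMSO below 6%. Inhibitors were a 3-fold, 11-point series from […] to 1.0 μM. Substrate and inhibitor were combined and enzyme was added to start the reaction. AMC release was read for 2 h and converted via an AMC standard curve. Progress curves were fitted to a six-parameter covalent inhibition model (k_inact, association/dissociation constants).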

Row | SMILES | Ratio [×10³ /M/s]
1 | CC[C@H](C)[C@@H](C(=O)O[C@@H](CC(C)C)C(=O)N[C@@H](CC(C)C)C(=O)N[C@@H](C)/C=C/C(=O)N1C(=O)C=C(OC)[C@@H]1Cc1ccccc1)N(C)C | 1300
2 | CC[C@H](C)[C@@H](C(=O)O[C@@H](CC(C)C)C(=O)N[C@@H](CC(C)C)C(=O)N[C@H](/C=C/C(=O)N1C(=O)C=C(OC)[C@@H]1CC(C)C)Cc1ccccc1)N(C)C | 8730
3 | CC[C@H](C)[C@@H](C(=O)O[C@@H](CC(C)C)C(=O)N[C@@H](CC(C)C)C(=O)N[C@H](/C=C/C(=O)N1C(=O)C=C(OC)[C@@H]1C)Cc1ccccc1)N(C)C | 818
4 | C#CCCCCOC1=CC(=O)N(C(=O)/C=C/[C@H](C)NC(=O)[C@H](CC(C)C)NC(=O)[C@H](CC(C)C)OC(=O)[C@H]([C@@H](C)CC)N(C)C)[C@@H]1C | 3600
